Like-named read-outs stand apart in the source and are kept apart here. Values belong to the compound of their own block, whether it stands above or below them.
What was measured:
[1] = molecular target: intrinsic renin contained in the renatured human plasma (Homo sapiens, UniProt P00797); test: Renin inhibition in vitro (angiotensin I production in renatured human plasma, RIA)
Experimental: Commercially available lyophilized human plasma (Ortho, Bi-Level Plasma Renin Control) was renatured by dissolving in water. Angiotensinogen was allowed to react with intrinsic renin contained in the renatured plasma to generate angiotensin I (AI), which was quantitatively measured with radioimmunoassay (RIA). Thus, potency of the plasma renin was determined on the basis of the AI production. For this purpose, Renin RIA kit (RENIN' RIABEAD®) manufacture by Dinabott was used. All of the reagents necessary for the measurement of the AI production were available from the attachment of the kit, and the measurement was conducted according to the manufacturer's direction.
To the plasma (0.2 ml) were added all of the reagents, and the mixture was combined with either of sample solutions (0.002 ml) of various concentrations which had been prepared by dissolving a test compound in different amount of ethanol. Ethanol (0.002 ml) containing no test compound was used as a control solution. The amount of AI produced was measured after 60 minutes incubation. Renin inhibition potency of test compound was determined by comparing the amount of AI produced by a sample solution with that produced by a control solution.

Sequences of proteins named here, by UniProt entry; tags and fusion partners are left off. Residues count along the entry.
UniProt P00797, 67-406 limits assumed: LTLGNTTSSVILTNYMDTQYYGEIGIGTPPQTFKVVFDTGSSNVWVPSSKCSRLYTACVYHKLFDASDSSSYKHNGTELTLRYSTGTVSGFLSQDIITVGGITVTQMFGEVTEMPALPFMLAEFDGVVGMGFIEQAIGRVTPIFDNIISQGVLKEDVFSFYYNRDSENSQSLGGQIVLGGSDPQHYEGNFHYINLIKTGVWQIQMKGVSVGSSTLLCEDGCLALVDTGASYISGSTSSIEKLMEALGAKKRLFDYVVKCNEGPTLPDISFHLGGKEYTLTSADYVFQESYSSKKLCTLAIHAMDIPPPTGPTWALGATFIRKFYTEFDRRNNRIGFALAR
UniProt Q6DLS0, 67-406 limits assumed: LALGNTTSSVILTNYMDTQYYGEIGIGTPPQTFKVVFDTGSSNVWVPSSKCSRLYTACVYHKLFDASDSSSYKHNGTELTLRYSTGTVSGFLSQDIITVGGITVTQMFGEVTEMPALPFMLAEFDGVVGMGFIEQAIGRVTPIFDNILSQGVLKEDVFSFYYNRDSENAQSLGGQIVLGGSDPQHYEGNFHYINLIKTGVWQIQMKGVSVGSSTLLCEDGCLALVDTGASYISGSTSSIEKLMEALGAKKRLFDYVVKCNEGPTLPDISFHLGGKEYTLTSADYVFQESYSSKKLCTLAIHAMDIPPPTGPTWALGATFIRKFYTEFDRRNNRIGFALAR

[2] = molecular target: Plasma renin activity (Macaca fascicularis, UniProt Q6DLS0); test: Renin inhibition in vivo (plasma renin activity after oral administration to hyperrenin monkeys); settings: 15 mg/kg orally; for Renin inhibition potency, 4 h: 4 h after administration
Experimental: Crab-eating monkeys (Cynomolgus monkeys) (2.8-5.0 kg) were fed on low sodium diet (Na 7.15 mg/100 g feed) for six days, during which the monkeys intramuscularly received furosemide (2 mg/kg body weight) every other day from the second day of the experiment, in order to make the monkeys hyperrenin condition.
After seven days from the low sodium feeding, the monkeys were restrained on a monkey chair. Compounds to be tested are dissolved in 0.1 M citric acid/physiological saline or suspended in water with addition of β-cyclodextrin, and orally administered to the monkeys using a stomach probe (15 mg/kg body weight). […] For the blood collection, an injection syringe containing 30 μl of 6% aqueous EDTA·2Na solution was used. The collected blood was transferred into a test tube and centrifuged (3000 rpm, 10 minutes) at 4° C., and the resultant supernatant was used to determine the renin content. Plasma renin activity (AI(ng)/ml/h value) was measured using Radioimmunoassy kit commercially available from Dinabott Co. in the same manner as in the foregoing in vitro test. Renin inhibition potencies of the compounds tested, which were expressed as a percentage of renin activity relative to the activity before the administration, are listed in Table 12.

[3] = read-out: IC50 (concentration which inhibits renin activity by 50%), 60 minutes incubation
[4] = furosemide not administered, tested form: 1/2H2O, 1/4iPr2O
[5] = read-out: IC50 (concentration which inhibits renin activity by 50%), 60 minutes incubation, tested form: 1/2H2O
[6] = low sodium diet + furosemide, tested form: 1/2H2O
[7] = furosemide not administered, tested form: H2O
[8] = read-out: IC50 (concentration which inhibits renin activity by 50%), 60 minutes incubation, tested form: 3/4H2O

- IC50 [1, 3]: 1.56 nM
- Renin inhibition potency, Max ([2]; low sodium diet + furosemide): 99%
- Renin inhibition potency, Mean ([2]; low sodium diet + furosemide): 90%
- Renin inhibition potency, 4 h ([2]; low sodium diet + furosemide): 77%
- Renin inhibition potency, 6 h ([2]; low sodium diet + furosemide, 6 h after administration): 56%
- Renin inhibition potency, 8 h ([2]; low sodium diet + furosemide, 8 h after administration): 42%
- Renin inhibition potency, 24 h ([2]; low sodium diet + furosemide, 24 h after administration): 28%
SMILES: CC(C)(C)S(=O)(=O)C[C@@H](Cc1ccccc1)C(=O)N[C@@H](Cc1cscn1)C(=O)N[C@@H](CC1CCCCC1)[C@@H](O)CC(=O)c1ccncc1

- IC50 [1, 3]: 3.31 nM
SMILES: Cn1ccc(C(=O)C[C@H](O)[C@H](CC2CCCCC2)NC(=O)[C@H](Cc2cscn2)NC(=O)[C@H](Cc2ccccc2)CS(=O)(=O)C(C)(C)C)c1

- IC50 [1, 3]: 0.31 nM
SMILES: O=C(C[C@H](O)[C@H](CC1CCCCC1)NC(=O)[C@H](Cc1cscn1)NC(=O)[C@H](Cc1ccccc1)NS(=O)(=O)N1CCOCC1)C1CCCCC1

- IC50 [1, 3]: 11.6 nM
SMILES: O=C(C[C@H](O)[C@H](CC1CCCCC1)NC(=O)[C@H](Cc1cscn1)NC(=O)[C@H](Cc1cccc2ccccc12)NS(=O)(=O)N1CCOCC1)CN1CCCCC1

- IC50 [1, 3]: 3.16 nM
SMILES: CN(C)S(=O)(=O)N[C@@H](Cc1ccccc1)C(=O)N[C@@H](Cc1cscn1)C(=O)N[C@@H](CC1CCCCC1)[C@@H](O)CC(=O)c1ccncc1

- IC50 ([1]; read-out: IC50 (concentration which inhibits renin activity by 50%), 60 minutes incubation, tested form: 0.75H2O): 0.7 nM
SMILES: O=C(N[C@@H](CC1CCCCC1)[C@@H](O)CNS(=O)(=O)CCN1CCOCC1)[C@H](Cc1cscn1)NC(=O)[C@H](Cc1ccccc1)NS(=O)(=O)N1CCOCC1

- IC50 ([1]; read-out: IC50 (concentration which inhibits renin activity by 50%), 60 minutes incubation, tested form: 5/4H2O): 3.75 nM
SMILES: CC(C)(C)S(=O)(=O)C[C@@H](Cc1ccccc1)C(=O)N[C@@H](Cc1c[nH]cn1)C(=O)N[C@@H](CC1CCCCC1)[C@@H](O)CC(=O)c1cccc(C(=O)N2CCOCC2)c1

- IC50 [1, 3]: 6.72 nM
SMILES: Cc1nc(C[C@H](NC(=O)[C@H](Cc2ccccc2)NS(=O)(=O)N2CCOCC2)C(=O)N[C@@H](CC2CCCCC2)[C@@H](O)CC(=O)c2ccncc2)cs1

- IC50 [1, 3]: 1.07 nM
SMILES: O=C(C[C@H](O)[C@H](CC1CCCCC1)NC(=O)[C@H](Cc1cscn1)NC(=O)[C@H](Cc1cccc2ccccc12)NS(=O)(=O)N1CCOCC1)CN1CCOCC1

- IC50 [1, 3]: 9.53 nM
SMILES: NC(=O)C[C@H](NC(=O)[C@H](Cc1cccc2ccccc12)NS(=O)(=O)N1CCOCC1)C(=O)N[C@@H](CC1CCCCC1)[C@@H](O)CC(=O)c1ccncc1

- IC50 ([1]; read-out: IC50 (concentration which inhibits renin activity by 50%), 60 minutes incubation, tested form: 1 3/4H2O): 22.8 nM
SMILES: CC(C)(C)S(=O)(=O)C[C@@H](Cc1ccccc1)C(=O)N[C@@H](Cc1c[nH]cn1)C(=O)N[C@@H](CC1CCCCC1)[C@@H](O)CC(=O)c1cccc(OC(=O)N2CCOCC2)c1

Further lines, the compound ahead of its results:

SMILES: CC(C)(C)S(=O)(=O)C[C@@H](Cc1ccccc1)C(=O)N[C@@H](Cc1c[nH]cn1)C(=O)N[C@@H](CC1CCCCC1)[C@@H](O)CC(=O)c1ccccc1
- IC50 ([1]; read-out: IC50 (concentration which inhibits renin activity by 50%), 60 minutes incubation, tested form: 1/2H2O, 1/4iPr2O): 5.87 nM
- Renin inhibition potency, 4 h [2, 4]: 49%
- Renin inhibition potency, Max [2, 4]: 49%
- Renin inhibition potency, Mean [2, 4]: 46%

SMILES: CC(C)(C)S(=O)(=O)C[C@@H](Cc1ccccc1)C(=O)N[C@@H](Cc1c[nH]cn1)C(=O)N[C@@H](CC1CCCCC1)[C@@H](O)CC(=O)C1CCCCC1
- IC50 [1, 5]: 2.73 nM
- Renin inhibition potency, 4 h [2, 6]: 55%
- Renin inhibition potency, Max [2, 6]: 55%
- Renin inhibition potency, Mean [2, 6]: 37%

SMILES: CC(C)(C)S(=O)(=O)C[C@@H](Cc1ccccc1)C(=O)N[C@@H](Cc1c[nH]cn1)C(=O)N[C@@H](CC1CCCCC1)[C@@H](O)CC(=O)c1nccs1
- IC50 ([1]; read-out: IC50 (concentration which inhibits renin activity by 50%), 60 minutes incubation, tested form: 2H2O, 1/2C4H8O2): 12 nM

SMILES: CC(C)(C)S(=O)(=O)C[C@@H](Cc1ccccc1)C(=O)N[C@@H](Cc1c[nH]cn1)C(=O)N[C@@H](CC1CCCCC1)[C@@H](O)CC(=O)c1ccsc1
- IC50 ([1]; read-out: IC50 (concentration which inhibits renin activity by 50%), 60 minutes incubation, tested form: H2O): 6.17 nM
- Renin inhibition potency, 4 h [2, 7]: 60%
- Renin inhibition potency, Max [2, 7]: 60%
- Renin inhibition potency, Mean [2, 7]: 52%

SMILES: CC(C)(C)S(=O)(=O)C[C@@H](Cc1ccccc1)C(=O)N[C@@H](Cc1c[nH]cn1)C(=O)N[C@@H](CC1CCCCC1)[C@@H](O)CC(=O)c1ccccc1F
- IC50 [1, 8]: 4.44 nM

SMILES: O=C(CN1CCOCC1)N[C@@H](Cc1cccc2ccccc12)C(=O)N[C@@H](Cc1cscn1)C(=O)N[C@@H](CC1CCCCC1)[C@@H](O)CNS(=O)(=O)c1cccnc1
- IC50 ([1]; read-out: IC50 (concentration which inhibits renin activity by 50%), 60 minutes incubation, tested form: 0.5H2O, 0.25CH2Cl2): 0.41 nM

SMILES: O=C(CN1CCOCC1)N[C@@H](Cc1cccc2ccccc12)C(=O)N[C@@H](Cc1cscn1)C(=O)N[C@@H](CC1CCCCC1)[C@@H](O)CC(=O)C1CCCCC1
- IC50 [1, 5]: 1.69 nM

SMILES: COc1cccc(C(=O)C[C@H](O)[C@H](CC2CCCCC2)NC(=O)[C@H](Cc2c[nH]cn2)NC(=O)[C@H](Cc2ccccc2)CS(=O)(=O)C(C)(C)C)c1
- IC50 ([1]; read-out: IC50 (concentration which inhibits renin activity by 50%), 60 minutes incubation, tested form: 1.5H2O): 3.21 nM

SMILES: Cc1ccc(C(=O)C[C@H](O)[C@H](CC2CCCCC2)NC(=O)[C@H](Cc2c[nH]cn2)NC(=O)[C@H](Cc2ccccc2)CS(=O)(=O)C(C)(C)C)cc1
- IC50 [1, 8]: 29 nM

SMILES: CC(C)(C)S(=O)(=O)C[C@@H](Cc1ccccc1)C(=O)N[C@@H](Cc1c[nH]cn1)C(=O)N[C@@H](CC1CCCCC1)[C@@H](O)CC(=O)c1cccc(F)c1
- IC50 [1, 8]: 10.9 nM

SMILES: CC(C)(C)S(=O)(=O)C[C@@H](Cc1ccccc1)C(=O)N[C@@H](Cc1c[nH]cn1)C(=O)N[C@@H](CC1CCCCC1)[C@@H](O)CC(=O)c1ccccc1NS(C)(=O)=O
- IC50 ([1]; read-out: IC50 (concentration which inhibits renin activity by 50%), 60 minutes incubation, tested form: 1/4(iPr)2O, 1/2H2O): 71.3 nM

SMILES: CC(C)(C)S(=O)(=O)C[C@@H](Cc1ccccc1)C(=O)N[C@@H](Cc1c[nH]cn1)C(=O)N[C@@H](CC1CCCCC1)[C@@H](O)CC(=O)c1ccc(F)cc1
- IC50 [1, 8]: 9.1 nM

SMILES: CC(C)(C)S(=O)(=O)C[C@@H](Cc1ccccc1)C(=O)N[C@@H](Cc1cscn1)C(=O)N[C@@H](CC1CCCCC1)[C@@H](O)CC(=O)c1ccccc1
- IC50 [1, 3]: 2.07 nM

SMILES: CC(C)(C)S(=O)(=O)C[C@@H](Cc1ccccc1)C(=O)N[C@@H](Cc1c[nH]cn1)C(=O)N[C@@H](CC1CCCCC1)[C@@H](O)CC(=O)c1ccccc1Cl
- IC50 ([1]; read-out: IC50 (concentration which inhibits renin activity by 50%), 60 minutes incubation, tested form: 0.1CH2Cl2, 1/3H2O): 9.3 nM

SMILES: CC(C)(C)S(=O)(=O)C[C@@H](Cc1ccccc1)C(=O)N[C@@H](Cc1c[nH]cn1)C(=O)N[C@@H](CC1CCCCC1)[C@@H](O)CC(=O)c1c(F)cccc1F
- IC50 ([1]; read-out: IC50 (concentration which inhibits renin activity by 50%), 60 minutes incubation, tested form: 2/3H2O): 4.56 nM

SMILES: CC(C)(C)S(=O)(=O)C[C@@H](Cc1ccccc1)C(=O)N[C@@H](Cc1c[nH]cn1)C(=O)N[C@@H](CC1CCCCC1)[C@@H](O)CC(=O)c1cccc(C#N)c1
- IC50 ([1]; read-out: IC50 (concentration which inhibits renin activity by 50%), 60 minutes incubation, tested form: H2O, 1/4CH2Cl2): 12.6 nM

SMILES: CC(C)(C)S(=O)(=O)C[C@@H](Cc1ccccc1)C(=O)N[C@@H](Cc1c[nH]cn1)C(=O)N[C@@H](CC1CCCCC1)[C@@H](O)CC(=O)c1ccc(F)cc1F
- IC50 [1, 5]: 4.22 nM

SMILES: CC(C)(C)S(=O)(=O)C[C@@H](Cc1ccccc1)C(=O)N[C@@H](Cc1c[nH]cn1)C(=O)N[C@@H](CC1CCCCC1)[C@@H](O)CC(=O)c1ccc2c(c1)OCO2
- IC50 ([1]; read-out: IC50 (concentration which inhibits renin activity by 50%), 60 minutes incubation, tested form: 2H2O, 2/5 dioxane): 7.36 nM

SMILES: CC(C)(C)S(=O)(=O)C[C@@H](Cc1ccccc1)C(=O)N[C@@H](Cc1cscn1)C(=O)N[C@@H](CC1CCCCC1)[C@@H](O)CC(=O)c1ccsc1
- IC50 [1, 3]: 3.17 nM

SMILES: COc1ccccc1C(=O)C[C@H](O)[C@H](CC1CCCCC1)NC(=O)[C@H](Cc1c[nH]cn1)NC(=O)[C@H](Cc1ccccc1)CS(=O)(=O)C(C)(C)C
- IC50 [1, 8]: 53.9 nM

SMILES: CC(C)(C)S(=O)(=O)C[C@@H](Cc1ccccc1)C(=O)N[C@@H](Cc1c[nH]cn1)C(=O)N[C@@H](CC1CCCCC1)[C@@H](O)CC(=O)c1ccc(C(F)(F)F)cc1
- IC50 [1, 5]: 259 nM

— patent US5272268A, “Dipeptide derivatives” (Shionogi & Co., Ltd., priority 1990, dated 1993)
